{"source": "paper PMC10528385", "about": "(Antiviral research, 2023)", "molecular_target": "NA of A/Washington/01/2007 A(H3N2), WT (Influenza A virus, UniProt A7UPN3)", "assay": "biochemical", "note": "pIC50: −log10 of the molar value."}
{"smiles": "CCOC(=O)C1=C[C@@H](OC(CC)CC)[C@H](NC(C)=O)[C@@H](N)C1", "note": "[Oseltamivir, oseltamivir]", "values": [{"measurement": "pIC50", "value": 9.52}]}
